Values of other authors, collected in publication doi:10.1101/2021.11.01.466777v1 (bioRxiv, 2021).

Conditions: human volunteers; no reference given; cited from earlier work

Substance: daptomycin
- half-life: ~8 h
